Data published in patent publication US20230144203A1, “DRUG CONJUGATE OF ERIBULIN DERIVATIVE, PREPARATION METHOD THEREFOR AND APPLICATION THEREOF IN MEDICINE” (SHANGHAI SENHUI MEDICINE CO., LTD., priority 2020, published 2023).

Experiment: Test Example 6 pharmacokinetic study in beagles
Conditions: male, beagle, dog, in vivo, iv, 0.5 mg/kg
Method: The pharmacokinetic performance in beagles of the compounds of the present disclosure was studied and the pharmacokinetic profile thereof was evaluated.
Male 6 beagles were divided into 2 groups of 3, purchased from Shanghai Medicilon Inc., and subjected to administration test.
Plasma samples were stored in a refrigerator at −80° C. prior to testing. […] The plasma concentration of the test compounds in beagles after drug injection was determined: after administration, 25 μL of beagle plasma at various times after administration was taken, and added with 50 μL (100 ng/mL) of internal standard solution camptothecin (National Institutes for Drug Control) and 200 μL of acetonitrile. The mixture was vortexed for 5 min and centrifuged for 10 min (3700 rpm/min). 3 to 4 μL of the supernatant of the plasma sample was subjected to LC/MS assay (API4000 triple quadrupole tandem mass spectrometer (No. 2), Applied Biosystems, USA; Shimadzu, LC-30AD ultra high performance liquid chromatography system, Shimadzu, Japan.) The analysis was performed.

Q: What does the source list for `C=C1C[C@@H]2CC[C@@]34C[C@H]5O[C@H]6[C@@H](O3)[C@H]3O[C@H](CC[C@@H]3O[C@H]6[C@H]5O4)CC(=O)C[C@@H]3[C@@H](OC)[C@@H](C[C@H](O)CN)O[C@H]3C[C@H]3O[C@@H](CC[C@@H]1O2)C[C@@H](C)C3=C` [Eribulin, eribulin]?
A: AUC(0-t): 106 ng·h/mL; MRT: 3.7 h; Vd: 15.6 L/kg; clearance: 78 mL/min/kg; half-life: 3.5 h
